# The list shows a part of the results, in another mix than the full data. Calls of active or inactive are those of the source.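 How the source made its calls: active means response above a set limit, near 3 SD of response in nonfluorescent compounds (cut at about 42% in these data); inactive means the rest.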
# Biological target: Beta-2 adrenergic receptor (Homo sapiens) (UniProt P07550)
# Experiment: beta2AR agonists driving receptor internalization, primary screen, cell-based, FAP fluorogen, flow cytometry (AID 504454)
# Conditions: Am2.2-beta2AR cells, active compounds read high, concentration not given here
row,SMILES,response
1,CN(C)C(=O)c1cc([N+](=O)[O-])cc2c1-c1c(cc([N+](=O)[O-])cc1[N+](=O)[O-])C2=O,active: 67.9%
2,CC(Cc1ccc(O)cc1)NCC(O)c1cc(O)cc(O)c1 (stereo not drawn),active: 44.6%
3,CC1=NCCc2c1[nH]c1ccccc21,active: 61.9%
